Measured values published in US9408845B2, “Formulations containing pyridazine compounds” (Northwestern University, priority 2006, dated 2016).

System: nitric oxide (NO) production in BV-2 microglial cells
Assay: LPS-stimulated accumulation of nitrite (NO metabolite) in BV-2 cells, Griess assay
Assay type: cell-based, mouse
Conditions: same concentration range

Cc1cc(-c2ccccc2)nnc1N1CCN(c2ncccn2)CC1 [MW01-2-151SRM, 4-methyl-6-phenyl-3-(4-pyrimidin-2-ylpiperazin-1-yl)pyridazine]
selectivity (inhibits IL-1β but not production of NO, iNOS, COX-2): selective
